Legend:
[1] = test system: multiple mutants of exon 17 (cKIT); test: Potency against multiple mutants of KIT exon 17
[2] = test system: cKIT Exon 9; test: Potency against KIT exon 9
[3] = test system: primary and secondary cKIT mutations; test: Inhibition of cKIT mutations
[4] = First-in-human Phase 1/1b study of M4205 in subjects with GIST
Source text: This study is designed to evaluate the safety, tolerability, PK, and preliminary antitumor activity of M4205 in adult participants with advanced (metastatic and/or surgically unresectable) GIST.
This is a Phase 1/1b, first-in-human (FIH) study of M4205, an orally administered small molecule tyrosine kinase inhibitor. Eligible participants have metastatic and/or surgically unresectable GIST, after failure of at least imatinib due to progression of GIST. The study consists of 2 parts. Phase 1 comprises dose escalation to assess clinical and pharmacologic profile, safety/tolerability, and support choice of the recommended phase 2 dose and schedule (RP2DS). Phase 1b expansion will enroll separate cohorts of participants defined by numbers of lines of prior GIST therapy at the selected RP2DS to assess the preliminary antitumor effect of M4205 and further characterize the safety profile of M4205 at the RP2DS.
Cohort 1 consisted of subjects who have progressed on imatinib only (n=29). Cohort 2 consisted of subjects who have progressed on both imatinib and sunitinib or progressed on imatinib, sunitinib, and an additional agent (e.g., regorafenib or ripretinib). Cohort 3 consisted of subjects who have progressed on imatinib, sunitinib, regorafenib, and ripretinib. Cohort 3 400 mg QD dose confirmed to be safe and tolerable.
Dose-related increase in exposure was observed from 120 mg to 600 mg QD.

[5] = test system: GS 11331 gastrointestinal stromal tumor PDX model; test: In vivo efficacy, alone and in combination (Example 5); conditions: for TGI: Table 11; for Tumor Size on Day 56: mean ± SEM, Day 56 per head
Source text: This study investigated the therapeutic efficacy of M4205 and compounds of Formula (I) (e.g., Compound 198) as single test agents and in combination in GS 11331 gastrointestinal stromal tumor PDX model in female BALB/c nude mice.
Methods: Fresh tumor tissues from stock mice were harvested and used for inoculation into mice. Each mouse was inoculated subcutaneously in the right front flank with primary human tumor xenograft model tumor fragments (approximately 2-3 mm in diameter) for tumor development.
The randomization started when the mean tumor size reached approximately 176-178 mm^3. 54 mice were enrolled in the study. All animals were randomly allocated to 9 study groups based on the tumor volume, 6 mice in each group. Randomization was performed based on “Matched distribution” method/“Stratified” method (StudyDirector™ software). The date of randomization was denoted as day 0.
(§1) The treatment was initiated on the same day of randomization (day 0) per study design.
(§2) Observations and Data Collection: After tumor cells inoculation, the animals were checked daily for morbidity and mortality. During routine monitoring, the animals were checked for any effects of tumor growth and treatments on behavior such as mobility, food and water consumption, body weight gain/loss (body weights were measured twice per week after randomization), eye/hair matting and any other abnormalities. Mortality and observed clinical signs were recorded for individual animals in detail.
(§3) Tumor volumes were measured twice per week after randomization in two dimensions using a caliper, and the volume was expressed in mm^3 using the formula: “V=(L×W×W)/2, where V was tumor volume, L was tumor length (the longest tumor dimension) and W was tumor width (the longest tumor dimension perpendicular to L). Dosing as well as tumor and body weight measurements were conducted in a Laminar Flow Cabinet. The body weights and tumor volumes were measured by scale and caliper, the data was recorded by using StudyDirector™ software.
Study Termination: The treatments were performed for 28 days. The study was terminated on day 28. Tumors were not collected for euthanized mice before termination of the study. No sampling for mice found dead.
(§4) Therefore, an ANOVA test was conducted to determine whether there exists any pair of groups with different group means and run the post hoc Tukey HSD for all pairwise comparisons or Dunnett's t test for each treatment against one control.
(§5) Then a Kruskal-Wallis test was conducted to determine if there exists any pair of groups with different group medians and run the post hoc Conover's non-parametric all-pairs comparison test for all pairwise comparisons, or Conover's non-parametric many-to-one comparison test for each treatment against one control.
(§6) Both tests use single-step p-value adjustment. In addition, pairwise comparisons were performed without multiple comparison correction and report nominal/uncorrected p-values directly from Welch's t-test or Mann-Whitney U test. The criterion of choosing Welch's t-test or Mann-Whitney U test is the same as the two-group comparison method mentioned above. All statistical analyses had been done in R language and environment for statistical computing and graphics (version 3.6.0). All tests were two-sided unless otherwise specified, and p-values of <0.05 are regarded as statistically significant. For survival analysis, Kaplan-Meier model with Log-rank method was applied.

[6] = test system: GS 11331 gastrointestinal stromal tumor PDX model; test: In vivo efficacy, single agents (Example 3); conditions: for T/C / TGI: day 56; for Tumor Size on Day 56: mean
Description: This study investigated the therapeutic efficacy of M4205 and compounds of Formula (I) (e.g., Compound 198) as single test agents in GS 11331 gastrointestinal stromal tumor PDX model in female BALB/c nude mice.
Methods: Tumor inoculation was conducted as follows. Fresh tumor tissues from stock mice were harvested and used for inoculation into mice. Each mouse was inoculated subcutaneously in the right front flank with primary human tumor xenograft model tumor fragments (approximately 2-3 mm in diameter) for tumor development.
The randomization started when the mean tumor size reached approximately 147-148 mm^3. 42 mice were enrolled in the study. All animals were randomly allocated to 7 study groups based on the tumor volume, 6 mice in each group. Randomization was performed based on “Matched distribution” method/“Stratified” method (StudyDirector™ software). The date of randomization was denoted as day 0.
as §1, §2, §3
Study Termination: The treatments were performed for 57 days. The study was terminated on day 57. Tumors were not collected for euthanized mice before termination of the study. No sampling for mice found dead.
as §4, §5, §6

[7] = test system: cKIT Exon 13; test: Potency against KIT exon 13
[8] = Group 2: M4205 1 mg/kg p.o. QD×28 days
[9] = Group 3: M4205 2.5 mg/kg p.o. QD×28 days
[10] = Group 5: M4205 1 mg/kg p.o. QD×30 days
[11] = Group 6: M4205 2.5 mg/kg p.o. QD×30 days
[12] = Group 7: M4205 10 mg/kg p.o. QD×30 days

Cn1cc(-c2ccc(CNc3cc(-c4cnc5cc(OCCCN6CCCC6)ccn45)ncn3)cc2)cn1
potency against multiple mutants of exon 17 [1]: potent
potency against Exon 9 [2]: potent
inhibition of primary and secondary cKIT mutations [3]: inhibits primary and secondary cKIT mutations
exposure ([4]; 120 mg to 600 mg QD): Dose-related increase in exposure
safety and tolerability ([4]; Cohort 3, 400 mg QD dose): safe and tolerable
half-life (t1/2) ([4]; oral): about 150 hours
accumulation at steady state ([4]; oral, steady state): 5-7 fold
T/C [5, 8]: 0.64
TGI [5, 8]: 35.95%
TGI value on day 25 [5, 8]: 35.95%
Tumor Size on Day 56 [5, 8]: 331.27 +/− 31.17(5) mm^3
T/C [5, 9]: 0.25
TGI [5, 9]: 74.54%
TGI value on day 25 [5, 9]: 74.54%
Tumor Size on Day 56 [5, 9]: 131.67 +/− 34.02(6) mm^3
anti-tumor efficacy ([5]; M4205 mid-dose single treatment, vs vehicle): significant anti-tumor efficacy
T/C [6, 10]: 0.92
TGI [6, 10]: 7.65%
Tumor Size on Day 56 [6, 10]: 1611.88 mm^3
T/C [6, 11]: 0.14
TGI [6, 11]: 86.16%
Tumor Size on Day 56 [6, 11]: 241.61 mm^3
T/C [6, 12]: 0.01
TGI [6, 12]: 98.18%
Tumor Size on Day 56 [6, 12]: 20.84 mm^3
anti-tumor efficacy ([6]; M4205 mid-dose and high-dose single treatment, vs vehicle): statistically significant anti-tumor efficacy
potency against Exon 13 [7]: somewhat less potent, though still active

— patent publication US20260382609A1, “Combination Therapy Comprising Kit Inhibitors for Use in the Treatment of Cancer” (published 2026)
